Experimental findings from paper PMC7246325 (Drug Design, Development and Therapy, 2020) are described below.

The mark [1] stands for this setting: 3 mg warfarin oral + 750 mg apatinib daily, N=20, GMean (CV%).
The mark [2] stands for this setting: 3 mg warfarin oral, alone, N=23, GMean (CV%).

SMILES strings stand for the structures. Like-named read-outs stand apart in the source and are kept apart here.

As to `CC(=O)C[C@@H](c1ccccc1)c1c(O)c2ccccc2oc1=O` [S-Warfarin, S-warfarin], under setting [1], the AUC0-t is recorded as 7980 (25.8) h×ng/mL and the Cmax is reported as 234 (19.2) ng/mL. For the same molecule, under setting [2], the AUC0-t is recorded as 4210 (25.5) h×ng/mL and the Cmax was 194 (21.2) ng/mL.
